Reference: patent publication US20250049831A1, “ANTIVIRAL USE OF BISE[…], AND BISEPOXYLIGNAN COMPOSITION AND PREPARATION OF BISE[…]” (priority 2021, published 2025)
Like-named read-outs stand apart in the source and are kept apart here.

Tests used:
influenza virus = settings: mouse, in vivo
COVID-19 Delta virus = test: Lung histopathology of mice infected with COVID-19 Delta virus (treatment); settings: number of mice with lesion grade; High dose (80 mg/kg); COVID-19 Delta virus infected mice

| Structure (SMILES) | Lung index (X ± S) (influenza virus; 3.25 mg/kg) | Lung index inhibition rate (%) (influenza virus; 3.25 mg/kg) | Lung index (X ± S) (influenza virus; 13 mg/kg) | Lung index inhibition rate (%) (influenza virus; 13 mg/kg) | Pulmonary hemorrhage, Mild (COVID-19 Delta virus) | Pulmonary hemorrhage, Moderate (COVID-19 Delta virus) |
| --- | --- | --- | --- | --- | --- | --- |
| COc1cc([C@H]2OC[C@H]3[C@@H]2CO[C@H]3c2ccc(OC)c(OC)c2)ccc1O [Serial No. 3, phillygenin] | 1.196 ± 0.084 | 20.48% | 1.177 ± 0.792 | 21.74% | – | – |
| COc1ccc([C@H]2OC[C@H]3[C@@H]2CO[C@H]3c2ccc(O[C@@H]3O[C@H](CO)[C@@H](O)[C@H](O)[C@H]3O)c(OC)c2)cc1OC [Serial No. 2, phillyrin] | 1.192 ± 0.543 | 20.74% | 1.175 ± 0.259 | 21.88% | 3 | 1 |
